Laboratory results published in patent US11976334B2, “Inhibitor of ATR kinase for use in a method of treating a hyper-proliferative disease” (Bayer Aktiengesellschaft, priority 2017, dated 2024).

How the values were obtained:
IGROV-1 = assay: Tumor cell proliferation, IGROV-1 (crystal violet); type: cell-based; details: Homo sapiens, 96 h; IGROV-1, Ovarian; 4 days; read-out: in vitro (IC50, nM), inhibition of tumor cell proliferation
[1] = tested on: REC-1 xenograft (mantle cell lymphoma); details: mouse, in vivo
PC3 xenograft (prostate) = details: mouse, in vivo
[2] = tested on: LOVO xenograft (colorectal cancer); details: mouse, in vivo
[3] = tested on: A2780 xenograft (ovarian); details: mouse, in vivo

C[C@@H]1COCCN1c1cc(-c2ccnn2C)c2ccnc(-c3ccn[nH]3)c2n1 [Compound A, 2-[(3R)-3-methylmorpholin-4-yl]-4-(1-methyl-1H-pyrazol-5-yl)-8-(1H-pyrazol-5-yl)-1,7-naphthyridine]
IC50 (IGROV-1): 96 nM | anti-tumor efficacy upon monotherapy treatment (outcome in words) [1]: complete tumor remission | anti-tumor efficacy upon monotherapy treatment (outcome in words) (PC3 xenograft (prostate)): stable disease | anti-tumor efficacy upon monotherapy treatment (outcome in words) [2]: stable disease | anti-tumor efficacy upon monotherapy treatment (outcome in words) [3]: stable disease
